Results reported in patent US10413632B2, “Cement products and methods of making and using the same” (Pioneer Surgical Technology, Inc., priority 2007, dated 2019).

Test: Solubility in PEI or 1,4-diaminobutane (DAB)
From the text: The side chain amino groups of certain amino acid can serve as nucleophiles for the Michael addition to enones. Generally, amino acids are flaky or crystalline solids at room temperature, thus, they should be dissolved in a liquid to effectively participate in the set reaction.

guanidine carbonate [GUAC]
solubility (w/w) in PEI: 25.2%
